Adverse effect data for one compound are collected here from patent US7973043B2, “Combination therapy for depression, prevention of suicide, and various medical and psychiatric conditions” (priority 2002, dated 2011).

The conditions of the data set: hypothetical cases.

Molecules are shown by their SMILES.

On to `Cc1nc2n(c(=O)c1CCN1CCC(c3noc4cc(F)ccc34)CC1)CCCC2` [risperidone], for which the adverse effect entry is given as “galactorhoea”.
